In PubChem BioAssay AID1460 (National Center for Advancing Translational Sciences (NCATS), 2008) one finds activity, negative = inhibition data, which are given here for 42 compounds.

The chains behind the UniProt entries cited, without tags or fusion partners. Residues count along the entry.
UniProt P10636, 561-689 P618L limits assumed: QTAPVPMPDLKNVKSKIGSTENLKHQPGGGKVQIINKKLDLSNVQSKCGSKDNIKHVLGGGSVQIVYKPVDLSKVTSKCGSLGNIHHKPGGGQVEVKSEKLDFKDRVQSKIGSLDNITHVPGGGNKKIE

This is a selection; strong and weak results do not stand in their true shares. Inconclusive results are not listed. Active and inactive are the calls of the source. The call rests on the fitted dose curve; in most records, active means well fitted inhibition curve with a large enough effect; inconclusive means small, poorly fitted or top-dose-only effect; inactive means flat fitted curve, though single readings scatter.
On the % scale 0 is the no-effect control and ±100 the full control effect.

The target of this test is Microtubule-associated protein tau (Homo sapiens) (UniProt P10636). Kind of test: qHTS for Inhibitors of Tau Fibril Formation, Thioflavin T Binding. Further: nearly all actives have a fitted effect of over 55% in size. The conditions noted are these: recombinant tau K18 P301L (four-repeat tau fragment), heparin-induced fibrillization, ThT fluorescence; at 57.4 µM (top of the series).
As to `O=C(OC1CN2CCC1CC2)C1c2ccccc2Oc2ccccc21` (configuration not stated), the activity, negative = inhibition is inactive: -7.84%. With `N#CC1(Nc2ccccc2)CCN(Cc2ccccc2)CC1`, the activity, negative = inhibition was inactive: -9.41%.

In the case of `CCOC(=O)N1CCC(Nc2ccc(OC)cc2)CC1`, the activity, negative = inhibition is inactive: -6.58%. For the compound `O=C(NCC1(N2CCOCC2)CCCCC1)c1cc2ccccc2o1`, the activity, negative = inhibition is inactive: -15.1%. Regarding `COc1ccc(C(=O)NCC2(N3CCCCC3)CCCCC2)c(OC)c1OC`, the activity, negative = inhibition was inactive: 2.8%.

For the compound `COc1ccccc1C(=O)NCC1(N2CCOCC2)CCCCC1`, the activity, negative = inhibition was inactive: -6.26%. Regarding `COc1ccc(NC2CCN(CCc3ccccc3)CC2)c(OC)c1`, the activity, negative = inhibition is inactive: -18.6%. The figure for `O=C(NCC1(N2CCOCC2)CCCCC1)c1ccc(Cl)cc1` is inactive: -1.43%; for `O=C(NCC1(N2CCOCC2)CCCCC1)c1cc(=O)[nH]c2ccccc12` it is inactive: -6.38%. The result for `COc1ccc(NC2CCN(C(=O)OC(C)(C)C)CC2)cc1` reads inactive: -16.4%; that for `CN1CCN(CCOC(=O)C(O)(c2ccccc2)c2ccccc2)CC1`, inactive: -4.56%; that for `O=[N+]([O-])c1cc([N+](=O)[O-])c(NCC2CCS(=O)(=O)C2)c([N+](=O)[O-])c1` (configuration not stated), inactive: -14.6%.

As to `CCCOc1cccc(C(=O)NCC2(N3CCOCC3)CCCCC2)c1`, the activity, negative = inhibition was inactive: 1.3%. The figure for `N#CC1(Nc2ccccc2)CCN(CCc2ccccc2)CC1` is inactive: 2.65%; for `O=C(NCC1(N2CCCCC2)CCCCC1)c1cccc([N+](=O)[O-])c1` it is inactive: 3.42%. Regarding `CCOc1ccc(C(=O)NCC2(N3CCOCC3)CCCCC2)cc1`, the activity, negative = inhibition is inactive: 1.98%. The result for `CCCCOc1ccccc1C(=O)NCC1(N2CCOCC2)CCCCC1` reads inactive: -13.4%.

For `O=C(NCC1(N2CCOCC2)CCCCC1)c1ccccc1Br`, the activity, negative = inhibition is inactive: 8.56%.

In the case of `O=C(OC1CN2CCC1CC2)c1ccc([N+](=O)[O-])cc1` (configuration not stated), the activity, negative = inhibition is inactive: -3.36%.

Turning to `CC(C)c1ccc(NC2CCN(C(=O)OC(C)(C)C)CC2)cc1`, the activity, negative = inhibition is inactive: -11.8%. As for `COc1ccc(CN(CCCl)CCCl)cc1Cl`, the activity, negative = inhibition is inactive: -6.81%.

Regarding `CN(C)c1cccc(C(=O)NCC2(N3CCCCC3)CCCCC2)c1`, the activity, negative = inhibition was inactive: -8.85%.

For the compound `O=C(OC1CN2CCC1CC2)C1c2ccccc2C=Cc2ccccc21` (configuration not stated), the activity, negative = inhibition is inactive: -0.858%. `N/C(=N\O)c1c(N)no[n+]1[O-]`: the activity, negative = inhibition is inactive: 1.99%. The result for `COc1ccc(C(=O)NCC2(N3CCOCC3)CCCCC2)cc1OC` reads inactive: -6.59%. As for `c1ccc(CN2CCC(Nc3ccccc3)CC2)cc1`, the activity, negative = inhibition is inactive: -5.41%. For the compound `O=C(NCC1(N2CCOCC2)CCCCC1)c1ccccc1`, the activity, negative = inhibition was inactive: 2.03%.

In the case of `CCOC(=O)C(CC)C1=NC(C)(C)Cc2ccccc21.O=[N+]([O-])c1cc([N+](=O)[O-])c(O)c([N+](=O)[O-])c1` (configuration not stated), the activity, negative = inhibition is inactive: -5.59%. In the case of `O=C(NCC1(N2CCOCC2)CCCCC1)c1ccccc1[N+](=O)[O-]`, the activity, negative = inhibition is inactive: -6.05%. Consider `N#Cc1ccc(C(=O)NCC2(N3CCCCC3)CCCCC2)cc1`, for which the activity, negative = inhibition is inactive: -2.1%.

As for `O=C(NCC1(N2CCOCC2)CCCCC1)c1ccc([N+](=O)[O-])cc1`, the activity, negative = inhibition was inactive: -5.17%. Regarding `Cc1ccccc1C(=O)NCC1(N(C)C)CCCCC1`, the activity, negative = inhibition was inactive: 5.38%. For the compound `CC(C)(C)c1ccc(C(=O)NCC2(N3CCOCC3)CCCCC2)cc1`, the activity, negative = inhibition was inactive: -6.85%. For the compound `CN(C)c1ccc(C(=O)NCC2(N3CCCCC3)CCCCC2)cc1`, the activity, negative = inhibition is inactive: -5.02%. For `CCN1CCC(Nc2cccc(F)c2)CC1`, the activity, negative = inhibition was inactive: -5.04%.

In the case of `Fc1ccccc1NC1CCN(Cc2ccccc2)CC1`, the activity, negative = inhibition is inactive: -0.416%. The result for `CN(C)C1(CNC(=O)c2ccc(C(C)(C)C)cc2)CCCCC1` reads inactive: 1.64%; that for `COc1cc(OC)cc(C(=O)NCC2(N3CCOCC3)CCCCC2)c1`, inactive: 4.78%; that for `COc1cc(C(=O)NCC2(N3CCOCC3)CCCCC2)cc(OC)c1OC`, inactive: 8.56%. For the compound `CCC(CO)(C(=O)OC1CN2CCC1CC2)c1ccccc1` (configuration not stated), the activity, negative = inhibition was inactive: 3.92%.

For the compound `CC(C)(C)OC(=O)N1CCC(Nc2ccccc2)CC1`, the activity, negative = inhibition is inactive: -8.46%. Turning to `CCOc1ncccc1C(=O)NCC1(N2CCOCC2)CCCCC1`, the activity, negative = inhibition is inactive: -2.66%.
